Experimental data taken from patent publication US20260382613A1, “METHODS OF TREATING ACUTE LEUKEMIA” (published 2026).

Experiment: clinical safety and tolerability (TEAEs, SAEs, DLTs, QTc), Phase 1 study

SMILES: CNc1nc(NC2CCN(Cc3ccc4c(cc(C#N)n4C[C@H](C)N4CCN(S(C)(=O)=O)CC4)c3C)CC2)c2cc(CC(F)(F)F)sc2n1
- ≥Grade 3 TEAEs (Ziftomenib-Related) (Ph1a 400 mg N=5): 1 (20.0) %
- Anemia, ≥Grade 3 TEAE (All Causality) (Ph1a 600 mg N=5): 3 (60.0) %
- Decreased appetite, ≥Grade 3 TEAE (All Causality) (Ph1a 600 mg N=5): 0%
- Febrile neutropenia, ≥Grade 3 TEAE (All Causality) (Ph1a 600 mg N=5): 1 (20.0) %
- Neutropenia, ≥Grade 3 TEAE (All Causality) (Ph1a 600 mg N=5): 0%
- Pneumonia, ≥Grade 3 TEAE (All Causality) (Ph1a 600 mg N=5): 0%
- SAEs (All Causality) (Ph1a 600 mg N=5): 4 (80.0) %
- SAEs (Ziftomenib-Related) (Ph1a 600 mg N=5): 0 (0.0) %
- TEAEs (All Causality) (Ph1a 600 mg N=5): 4 (80.0) %
- Thrombocytopenia, ≥Grade 3 TEAE (All Causality) (Ph1a 600 mg N=5): 3 (60.0) %
- ≥Grade 3 TEAEs (All Causality) (Ph1a 600 mg N=5): 4 (80.0) %
- ≥Grade 3 TEAEs (Ziftomenib-Related) (Ph1a 600 mg N=5): 1 (20.0) %
- Anemia, ≥Grade 3 TEAE (All Causality) (Ph1a 800 mg N=11): 2 (18.2) %
- Decreased appetite, ≥Grade 3 TEAE (All Causality) (Ph1a 800 mg N=11): 1 (9.1) %
- Febrile neutropenia, ≥Grade 3 TEAE (All Causality) (Ph1a 800 mg N=11): 1 (9.1) %
- Neutropenia, ≥Grade 3 TEAE (All Causality) (Ph1a 800 mg N=11): 3 (27.3) %
- Pneumonia, ≥Grade 3 TEAE (All Causality) (Ph1a 800 mg N=11): 3 (27.3) %
- SAEs (All Causality) (Ph1a 800 mg N=11): (81.8) %
- SAEs (Ziftomenib-Related) (Ph1a 800 mg N=11): (0.0) %
- TEAEs (All Causality) (Ph1a 800 mg N=11): (100.0) %
- Thrombocytopenia, ≥Grade 3 TEAE (All Causality) (Ph1a 800 mg N=11): 0%
- ≥Grade 3 TEAEs (All Causality) (Ph1a 800 mg N=11): (90.9) %
- ≥Grade 3 TEAEs (Ziftomenib-Related) (Ph1a 800 mg N=11): (18.2) %
- dose-limiting toxicity (Ph1a 1000 mg): differentiation syndrome
- SAEs (All Causality) (Ph1a 1000 mg N=1): 1 (100.0) %
- SAEs (Ziftomenib-Related) (Ph1a 1000 mg N=1): 1 (100.0) %
- TEAEs (All Causality) (Ph1a 1000 mg N=1): 1 (100.0) %
- ≥Grade 3 TEAEs (All Causality) (Ph1a 1000 mg N=1): 1 (100.0) %
- ≥Grade 3 TEAEs (Ziftomenib-Related) (Ph1a 1000 mg N=1): 1 (100.0) %
- Decreased appetite, TEAE ≥Grade 3 (Ph1a N=30): 10.0%
- Pneumonia, TEAE ≥Grade 3 (Ph1a N=30): 23.3%
- Pulmonary embolism, ≥Grade 3 ziftomenib-related TEAE (Ph1a N=30): 6.7%
- SAEs (All Causality) (Ph1a all patients N=30): 24 (80.0) %
- SAEs (Ziftomenib-Related) (Ph1a all patients N=30): 4 (13.3) %
- TEAEs (All Causality) (Ph1a all patients N=30): 29 (96.7) %
- change in rate or severity of AEs with increasing dose (Ph1a and Ph1b): no significant increase in rate or severity of AEs with increasing dose
- most frequent TEAEs reported by ≥15% of patients (Ph1a and Ph1b): diarrhea, anemia, nausea, increased blood creatinine, fatigue, pneumonia, increased alanine aminotransferase, arthralgia, increased aspartate aminotransferase, decreased appetite, peripheral edema, pyrexia, anemia, epistaxis, febrile neutropenia, hypomagnesemia, and differentiation syndrome
- relationship between dose and rate of TEAEs (Ph1a and Ph1b): no apparent relationship
- safety and tolerability, 200 mg vs 600 mg (Ph1a and Ph1b): comparable safety and tolerability
- SAEs (All Causality) (Ph1a+1b KMT2A-r 200 mg N=14): 12 (85.7) %
- SAEs (Ziftomenib-Related) (Ph1a+1b KMT2A-r 200 mg N=14): 5 (35.7) %
- TEAEs (All Causality) (Ph1a+1b KMT2A-r 200 mg N=14): 14 (100.0) %
- ≥Grade 3 TEAEs (All Causality) (Ph1a+1b KMT2A-r 200 mg N=14): 14 (100.0) %
- ≥Grade 3 TEAEs (Ziftomenib-Related) (Ph1a+1b KMT2A-r 200 mg N=14): 7 (50.0) %
- SAEs (All Causality) (Ph1a+1b KMT2A-r 600 mg N=10): 5 (50.0) %
- SAEs (Ziftomenib-Related) (Ph1a+1b KMT2A-r 600 mg N=10): 2 (20.0) %
- TEAEs (All Causality) (Ph1a+1b KMT2A-r 600 mg N=10): 9 (90.0) %
- ≥Grade 3 TEAEs (All Causality) (Ph1a+1b KMT2A-r 600 mg N=10): 6 (60.0) %
- ≥Grade 3 TEAEs (Ziftomenib-Related) (Ph1a+1b KMT2A-r 600 mg N=10): 2 (20.0) %
- SAEs (Ziftomenib-Related) (Ph1a+1b KMT2A-r all N=24): 7 (29.2) %
- TEAEs (All Causality) (Ph1a+1b KMT2A-r all N=24): 23 (95.8) %
- ≥Grade 3 TEAEs (All Causality) (Ph1a+1b KMT2A-r all N=24): 20 (83.3) %
- ≥Grade 3 TEAEs (Ziftomenib-Related) (Ph1a+1b KMT2A-r all N=24): 9 (37.5) %
- SAEs (All Causality) (Ph1a+1b NPM1-m 200 mg N=6): 4 (66.7) %
- SAEs (Ziftomenib-Related) (Ph1a+1b NPM1-m 200 mg N=6): 1 (16.7) %
- TEAEs (All Causality) (Ph1a+1b NPM1-m 200 mg N=6): 6 (100.0) %
- ≥Grade 3 TEAEs (All Causality) (Ph1a+1b NPM1-m 200 mg N=6): 5 (83.3) %
- ≥Grade 3 TEAEs (Ziftomenib-Related) (Ph1a+1b NPM1-m 200 mg N=6): 1 (16.7) %
- SAEs (All Causality) (Ph1a+1b NPM1-m 600 mg N=11): 5 (45.5) %
- SAEs (Ziftomenib-Related) (Ph1a+1b NPM1-m 600 mg N=11): 4 (36.4) %
- TEAEs (All Causality) (Ph1a+1b NPM1-m 600 mg N=11): 9 (81.8) %
- ≥Grade 3 TEAEs (All Causality) (Ph1a+1b NPM1-m 600 mg N=11): 7 (63.6) %
- ≥Grade 3 TEAEs (Ziftomenib-Related) (Ph1a+1b NPM1-m 600 mg N=11): 6 (54.5) %
- SAEs (Ziftomenib-Related) (Ph1a+1b NPM1-m all N=17): 5 (29.4) %
- TEAEs (All Causality) (Ph1a+1b NPM1-m all N=17): 15 (88.2) %
- ≥Grade 3 TEAEs (All Causality) (Ph1a+1b NPM1-m all N=17): 12 (70.6) %
- ≥Grade 3 TEAEs (Ziftomenib-Related) (Ph1a+1b NPM1-m all N=17): 7 (41.2) %
- patients reporting at least one TEAE (Ph1a, 11 of 11 patients as printed): 100%
- trends in clinical laboratory assessments, vital signs, or ECGs (Ph1b): no clinically meaningful trends
- Increased alanine aminotransferase, ziftomenib-related SAE (Ph1b 200 mg): 1 patient
- Pleuritic chest pain, ziftomenib-related SAE (Ph1b 200 mg): 1 patient
- patients requiring dose interruptions (Ph1b 200 mg): 41.2%
- patients requiring treatment discontinuation (Ph1b 200 mg): 11.8%
- Leukocytosis, TEAE ≥Grade 3 (Ph1b 200 mg N=12): 17%
- Respiratory failure, TEAE ≥Grade 3 (Ph1b 200 mg N=12): 17%
- SAEs (All Causality) (Ph1b 200 mg N=17): (82.4) %
- TEAEs (All Causality) (Ph1b 200 mg N=17): (100.0) %
- ≥Grade 3 TEAEs (All Causality) (Ph1b 200 mg N=17): (94.1) %
- Cardiomyopathy, ziftomenib-related SAE (Ph1b 600 mg): 1 patient
- Diarrhea, ziftomenib-related SAE (Ph1b 600 mg): 1 patient
- Febrile neutropenia, ziftomenib-related SAE (Ph1b 600 mg): 2 patients
- Leukocytosis, ziftomenib-related SAE (Ph1b 600 mg): 1 patient
- Myocarditis, ziftomenib-related SAE (Ph1b 600 mg): 1 patient
- Worsening dyspnea, ziftomenib-related SAE (Ph1b 600 mg): 1 patient
- patients requiring dose interruptions (Ph1b 600 mg): 31.6%
- patients requiring treatment discontinuation (Ph1b 600 mg): 10.5%
- Diarrhea, TEAE ≥Grade 3 (Ph1b 600 mg N=12): 17%
- Leukocytosis, TEAE ≥Grade 3 (Ph1b 600 mg N=12): 17%
- Leukopenia, TEAE ≥Grade 3 (Ph1b 600 mg N=12): 17%
- SAEs (All Causality) (Ph1b 600 mg N=19): 9 (47.4) %
- TEAEs (All Causality) (Ph1b 600 mg N=19): 17 (89.5) %
- ≥Grade 3 TEAEs (All Causality) (Ph1b 600 mg N=19): 12 (63.2) %
- ≥Grade 3 TEAEs Occurring in >10% of Participants (Ph1b NPM1-m 200 mg n=4): 0
- ≥Grade 3 TEAEs Occurring in >10% of Participants (Ph1b NPM1-m 600 mg n=20): 0
- Leukocytosis, TEAE ≥Grade 3 (Ph1b first 24 patients): 17%
- Leukopenia, TEAE ≥Grade 3 (Ph1b first 24 patients): 13%
- Platelet count decreased, TEAE ≥Grade 3 (Ph1b first 36 patients): 11.1%
- Pneumonia, TEAE ≥Grade 3 (Ph1b first 36 patients): 11.1%
- TEAE requiring dose reduction (Ph1b first 36 patients): No patient reported a TEAE requiring dose reduction
- Alanine aminotransferase increased, Grade 3 or above TEAE (all patients, all doses N=83): 5 (6.0) %
- Anemia, Grade 3 or above TEAE (all patients, all doses N=83): 20 (24.1) %
- Diarrhea, Grade 3 or above TEAE (all patients, all doses N=83): 4 (4.8) %
- Febrile neutropenia, Grade 3 or above TEAE (all patients, all doses N=83): 18 (21.7) %
- Hyperglycemia, Grade 3 or above TEAE (all patients, all doses N=83): 5 (6.0) %
- Hypoxia, Grade 3 or above TEAE (all patients, all doses N=83): 7 (8.4) %
- Leukocytosis, Grade 3 or above TEAE (all patients, all doses N=83): 5 (6.0) %
- Neutropenia, Grade 3 or above TEAE (all patients, all doses N=83): 8 (9.6) %
- Neutrophil count decreased, Grade 3 or above TEAE (all patients, all doses N=83): 6 (7.2) %
- Patients with Grade 3 or above TEAE (all patients, all doses N=83): 76 (91.6) %
- Platelet count decreased, Grade 3 or above TEAE (all patients, all doses N=83): 6 (7.2) %
- Pneumonia, Grade 3 or above TEAE (all patients, all doses N=83): 16 (19.3) %
- Sepsis, Grade 3 or above TEAE (all patients, all doses N=83): 10 (12.0) %
- Thrombocytopenia, Grade 3 or above TEAE (all patients, all doses N=83): 11 (13.3) %
- additional, less common adverse events possibly related to DS (almost exclusively in KMT2A-r patients): alanine aminotransferase increase, pleuritic chest pain, myocarditis
- drug-drug interactions (clinical): No significant drug-drug interactions were noted
- QTc prolongation attributable to ziftomenib (cutoff 30 Aug 2023): not detected
- clinically significant cytopenias in patients achieving CR or CRh (cutoff 30 Aug 2023): not seen
- drug-induced QTc prolongation (overall study): No evidence was observed
